Reference: patent US6413998B1, “Compositions and methods for treating bone deficit conditions” (Osteoscreen, Inc., priority 1995, dated 2002)

System: TMC-23 cells
Test: Alkaline phosphatase (ALP) activity in chondrogenic cell line TMC-23
Format: cell-based, mouse
Conditions: compared to vehicle control
Experimental: Compounds 59-008, 59-0102 and 50-0197 were assayed for effects on the differentiation of cartilage cells, as compared to the action of recombinant human BMP-2. Briefly, a mouse clonal chondrogenic cell line, TMC-23, was isolated and cloned from costal cartilage of transgenic mice containing the BMP-2 gene control region driving SV-40 large T-antigen, generated as described in Ghosh-Choudhury el al Endocrinology 137:331-39, 1996.
For measurement of alkaline phosphatase (ALP) activity, the technique of LF Bonewald et al. J Biol Chem (1992) 267:8943-49, was employed. Briefly, TMC-23 cells were plated in 96 well microtiter plates in DMEM containing 10% FCS at 4×10^3 cells/well. Two days after plating, the cells were confluent and the medium was replaced with fresh medium containing 10% FCS and different concentrations of compounds or recombinant BMP-2. After an additional 2 or 5 days incubation, the plates were washed twice with PBS, and then lysing solution (0.05% Triton X-100) was added (100 μl/well). The cells were lysed by three freeze-thaw cycles of −70° C. (30 min), followed by 37° C. (30 min with shaking). Twenty microliters of cell lysates were assayed with 80 μl of 5 mM p-nitrophenol phosphate in 1.5 M 2-amino-2-methyl-propanol buffer, pH 10.3 (Sigma ALP kit, Sigma Chemical Co., St. Louis, Mo.) for 10 min at 37° C. The reaction was stopped by the addition of 100 μl of 0.5 M NaOH. The spectrophotometric absorbance at 405 nm was compared to that of p-nitrophenol standards to estimate ALP activity in the samples. The protein content of the cell lysates was determined by the Bio-Rad protein assay kit (Bio-Rad, Hercules, Calif.). Specific activity was calculated using these two parameters.

## Recombinant BMP2: recombinant human bone morphogenetic protein 2, comparator in the chondrogenic assay
10 ng/ml
  induction of ALP levels: ~1.5 fold
50 ng/ml
  induction of ALP levels: ~4 fold
100 ng/ml
  induction of ALP levels: approximately 10 fold
